Where two headings read alike, the source gives them in different places.

Test [1] relates to XA binding sites on crude synaptosomal membranes from rat brain. Kind of test: [3H]-XA saturation and kinetic binding on crude synaptosomal membranes from rat brain. To be noted: in the presence of 1 mM non-radioactive XA, pH 7.4, 0°C. The method, then: Brains were rapidly extracted from adult male Wistar rats killed by decapitation after being stunned. All the following procedures were done with buffers cooled at 0°C. Brains were homogenized with a motor driven Teflon/glass apparatus in 10 vol (W/V) of sucrose 0.32 M containing potassium phosphate buffer pH 7.2 and 2 mM EDTA. After centrifugation at 1,500 g for 10 min to remove the crude nuclear fraction, the supernatant was spun at 35,000 g for 20 min. The pellet obtained was resuspended in lysis buffer (2 mM EDTA/water pH 6.0 at 0°C, spun at 100,000 g for 20 min). After washing the pellet with potassium phosphate buffer 50 mM, pH 6.0, the crude membrane fraction was directly used for further experiments or stored at −80°C.
Bound from free ligand was separated by rapid filtration on 25 mm Whatman GF/B filters and washing with incubation buffer (3×3 ml at 0°C). Radioactivity on filters was measured by liquid scintillation counting.

Test [2] concerns differentiated NCB-20 cells. To be noted: XA 20–30 µM. The method, then: NCB-20 cells were plated at low density (10^4 cells/dish) in 35-mm dishes and differentiated with 1 mM db-cAMP. The culture medium was replaced twice a week and the cells were used after 5 days in culture. Cells were recorded either in cell-attached or whole-cell configuration of the patch-clamp technique using an Axopatch-B200 amplifier (Axon Instruments, CA, USA) in its voltage-clamp mode. […] Junction potentials were calculated using the routine procedure in the Clampex software (Axon instruments, CA, USA) and taken into account for current-voltage (I–V) relationships and reversal potential calculation according to the recording configuration.
Data were analyzed offline using the clampfit routine of the Pclamp software package. The given results are means±SEM and statistical significance of the difference between means was determined using one way ANOVA followed by Dunnett's Multiple Comparison test.

In the case of `O=C(O)c1cc(O)c2cccc(O)c2n1` [XA, Xanthurenic acid], in test [1], the “dissociation rate constant (Koff)” value is 0.021 s⁻¹. Further, the “cellular conductance activated by XA” value stood at 11.1±2.6 nS in test [2] (high chloride pipette medium) and 12.7±3.2 nS in test [2] (low chloride pipette medium).

The record behind these values is publication PMC3491036, “Xanthurenic Acid Binds to Neuronal G-Protein-Coupled Receptors That Secondarily Activate Cationic Channels in the Cell Line NCB-20” (PLoS ONE, 2012).
